From PubChem BioAssay (NCI)
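These data come from cells grown in 96-well plates and exposed to compound for 48 hours at five concentrations. At the GI50, growth is halved. TGI: total growth inhibition.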

How the values were obtained:
Experiment in all cases: NCI-60 cell line screen, 48 h
HS 578T breast = tested on: HS 578T breast
SF-268 CNS = tested on: SF-268 CNS
SNB-19 CNS = tested on: SNB-19 CNS
MCF7 breast = tested on: MCF7 breast
SF-539 CNS = tested on: SF-539 CNS
SK-OV-3 ovarian = tested on: SK-OV-3 ovarian
HOP-92 NSCLC = tested on: HOP-92 NSCLC
HCT-116 colon = tested on: HCT-116 colon
CAKI-1 renal = tested on: CAKI-1 renal
ACHN renal = tested on: ACHN renal
HT29 colon = tested on: HT29 colon
PC-3 prostate = tested on: PC-3 prostate
SK-MEL-2 melanoma = tested on: SK-MEL-2 melanoma
NCI-H522 lung = tested on: NCI-H522 lung
K-562 leukemia = tested on: K-562 leukemia
SN12C renal = tested on: SN12C renal
BT-549 breast = tested on: BT-549 breast
RXF 393 renal = tested on: RXF 393 renal
IGROV1 ovarian = tested on: IGROV1 ovarian
UACC-257 melanoma = tested on: UACC-257 melanoma
LOX IMVI melanoma = tested on: LOX IMVI melanoma
COLO 205 colon = tested on: COLO 205 colon
SF-295 CNS = tested on: SF-295 CNS
OVCAR-3 ovarian = tested on: OVCAR-3 ovarian
HOP-62 NSCLC = tested on: HOP-62 NSCLC
SR leukemia = tested on: SR leukemia
HCT-15 colon = tested on: HCT-15 colon
UACC-62 melanoma = tested on: UACC-62 melanoma
CCRF-CEM leukemia = tested on: CCRF-CEM leukemia
OVCAR-5 ovarian = tested on: OVCAR-5 ovarian
MDA-MB-435 = tested on: MDA-MB-435
786-0 renal = tested on: 786-0 renal
M14 melanoma = tested on: M14 melanoma
MDA-MB-231 breast = tested on: MDA-MB-231 breast
HCC-2998 colon = tested on: HCC-2998 colon
SW-620 colon = tested on: SW-620 colon
OVCAR-8 ovarian = tested on: OVCAR-8 ovarian
OVCAR-4 ovarian = tested on: OVCAR-4 ovarian
UO-31 renal = tested on: UO-31 renal
NCI-H23 lung = tested on: NCI-H23 lung
T-47D breast = tested on: T-47D breast
EKVX NSCLC = tested on: EKVX NSCLC
RPMI-8226 leukemia = tested on: RPMI-8226 leukemia
TK-10 renal = tested on: TK-10 renal
MDA-N = tested on: MDA-N
NCI-H322M lung = tested on: NCI-H322M lung
U251 CNS = tested on: U251 CNS
NCI/ADR-RES ovarian = tested on: NCI/ADR-RES ovarian
KM12 colon = tested on: KM12 colon
A498 renal = tested on: A498 renal
A549 NSCLC = tested on: A549 NSCLC
NCI-H460 lung = tested on: NCI-H460 lung
MOLT-4 leukemia = tested on: MOLT-4 leukemia
NCI-H226 lung = tested on: NCI-H226 lung
MALME-3M melanoma = tested on: MALME-3M melanoma
SK-MEL-5 melanoma = tested on: SK-MEL-5 melanoma

Compound: Cn1c(N=[N+]=[N-])c([N+](=O)[O-])c(=O)n(C)c1=O
- GI50 (HS 578T breast): > 100 µM
- TGI (HS 578T breast): > 100 µM
- GI50 (SF-268 CNS): > 100 µM
- TGI (SF-268 CNS): > 100 µM
- GI50 (SNB-19 CNS): > 100 µM
- TGI (SNB-19 CNS): > 100 µM
- GI50 (MCF7 breast): > 100 µM
- TGI (MCF7 breast): > 100 µM
- GI50 (SF-539 CNS): > 100 µM
- TGI (SF-539 CNS): > 100 µM
- GI50 (SK-OV-3 ovarian): > 100 µM
- TGI (SK-OV-3 ovarian): > 100 µM
- GI50 (HOP-92 NSCLC): > 100 µM
- TGI (HOP-92 NSCLC): > 100 µM
- GI50 (HCT-116 colon): > 100 µM
- TGI (HCT-116 colon): > 100 µM
- GI50 (CAKI-1 renal): > 100 µM
- TGI (CAKI-1 renal): > 100 µM
- GI50 (ACHN renal): > 100 µM
- TGI (ACHN renal): > 100 µM
- GI50 (HT29 colon): > 100 µM
- TGI (HT29 colon): > 100 µM
- GI50 (PC-3 prostate): > 100 µM
- TGI (PC-3 prostate): > 100 µM
- GI50 (SK-MEL-2 melanoma): > 100 µM
- TGI (SK-MEL-2 melanoma): > 100 µM
- GI50 (NCI-H522 lung): > 100 µM
- TGI (NCI-H522 lung): > 100 µM
- GI50 (K-562 leukemia): > 100 µM
- TGI (K-562 leukemia): > 100 µM
- GI50 (SN12C renal): > 100 µM
- TGI (SN12C renal): > 100 µM
- GI50 (BT-549 breast): > 100 µM
- TGI (BT-549 breast): > 100 µM
- GI50 (RXF 393 renal): > 100 µM
- TGI (RXF 393 renal): > 100 µM
- GI50 (IGROV1 ovarian): > 100 µM
- TGI (IGROV1 ovarian): > 100 µM
- GI50 (UACC-257 melanoma): > 100 µM
- TGI (UACC-257 melanoma): > 100 µM
- GI50 (LOX IMVI melanoma): > 100 µM
- TGI (LOX IMVI melanoma): > 100 µM
- GI50 (COLO 205 colon): > 100 µM
- TGI (COLO 205 colon): > 100 µM
- GI50 (SF-295 CNS): > 100 µM
- TGI (SF-295 CNS): > 100 µM
- GI50 (OVCAR-3 ovarian): > 100 µM
- TGI (OVCAR-3 ovarian): > 100 µM
- GI50 (HOP-62 NSCLC): > 100 µM
- TGI (HOP-62 NSCLC): > 100 µM
- GI50 (SR leukemia): > 100 µM
- TGI (SR leukemia): > 100 µM
- GI50 (HCT-15 colon): > 100 µM
- TGI (HCT-15 colon): > 100 µM
- GI50 (UACC-62 melanoma): > 100 µM
- TGI (UACC-62 melanoma): > 100 µM
- GI50 (CCRF-CEM leukemia): 51.9 µM
- TGI (CCRF-CEM leukemia): > 100 µM
- GI50 (OVCAR-5 ovarian): 71.3 µM
- TGI (OVCAR-5 ovarian): > 100 µM
- GI50 (MDA-MB-435): > 100 µM
- TGI (MDA-MB-435): > 100 µM
- GI50 (786-0 renal): > 100 µM
- TGI (786-0 renal): > 100 µM
- GI50 (M14 melanoma): 59.9 µM
- TGI (M14 melanoma): > 100 µM
- GI50 (MDA-MB-231 breast): > 100 µM
- TGI (MDA-MB-231 breast): > 100 µM
- GI50 (HCC-2998 colon): > 100 µM
- TGI (HCC-2998 colon): > 100 µM
- GI50 (SW-620 colon): > 100 µM
- TGI (SW-620 colon): > 100 µM
- GI50 (OVCAR-8 ovarian): > 100 µM
- TGI (OVCAR-8 ovarian): > 100 µM
- GI50 (OVCAR-4 ovarian): > 100 µM
- TGI (OVCAR-4 ovarian): > 100 µM
- GI50 (UO-31 renal): > 100 µM
- TGI (UO-31 renal): > 100 µM
- GI50 (NCI-H23 lung): > 100 µM
- TGI (NCI-H23 lung): > 100 µM
- GI50 (T-47D breast): > 100 µM
- TGI (T-47D breast): > 100 µM
- GI50 (EKVX NSCLC): > 100 µM
- TGI (EKVX NSCLC): > 100 µM
- GI50 (RPMI-8226 leukemia): 99.9 µM
- TGI (RPMI-8226 leukemia): > 100 µM
- GI50 (TK-10 renal): > 100 µM
- TGI (TK-10 renal): > 100 µM
- GI50 (MDA-N): > 100 µM
- TGI (MDA-N): > 100 µM
- GI50 (NCI-H322M lung): > 100 µM
- TGI (NCI-H322M lung): > 100 µM
- GI50 (U251 CNS): > 100 µM
- TGI (U251 CNS): > 100 µM
- GI50 (NCI/ADR-RES ovarian): > 100 µM
- TGI (NCI/ADR-RES ovarian): > 100 µM
- GI50 (KM12 colon): > 100 µM
- TGI (KM12 colon): > 100 µM
- GI50 (A498 renal): > 100 µM
- TGI (A498 renal): > 100 µM
- GI50 (A549 NSCLC): > 100 µM
- TGI (A549 NSCLC): > 100 µM
- GI50 (NCI-H460 lung): > 100 µM
- TGI (NCI-H460 lung): > 100 µM
- GI50 (MOLT-4 leukemia): 64.6 µM
- TGI (MOLT-4 leukemia): > 100 µM
- GI50 (NCI-H226 lung): > 100 µM
- TGI (NCI-H226 lung): > 100 µM
- GI50 (MALME-3M melanoma): > 100 µM
- TGI (MALME-3M melanoma): > 100 µM
- GI50 (SK-MEL-5 melanoma): > 100 µM
- TGI (SK-MEL-5 melanoma): > 100 µM
